# The list shows a part of the results, in another mix than the full data. The source made the active and inactive calls. No stated cut-off is given here; in the data, active means activation above about 5% (passing the limit was not always enough); inactive means the rest.
# Amino acid sequences for entries named in this document (tags omitted).
# UniProt O43603, whole entry: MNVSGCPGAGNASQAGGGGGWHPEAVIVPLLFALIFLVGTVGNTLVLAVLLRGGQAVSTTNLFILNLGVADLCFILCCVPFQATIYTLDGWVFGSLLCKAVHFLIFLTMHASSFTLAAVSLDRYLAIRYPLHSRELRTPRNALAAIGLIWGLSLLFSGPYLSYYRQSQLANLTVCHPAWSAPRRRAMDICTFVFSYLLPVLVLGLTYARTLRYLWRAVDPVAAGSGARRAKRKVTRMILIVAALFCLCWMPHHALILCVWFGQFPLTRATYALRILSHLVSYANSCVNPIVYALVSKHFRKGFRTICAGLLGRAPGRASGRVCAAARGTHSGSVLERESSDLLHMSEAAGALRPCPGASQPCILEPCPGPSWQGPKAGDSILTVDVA
# Molecular target: Galanin receptor type 2 (Homo sapiens) (UniProt O43603)
# Assay: human galanin receptor 2 activators – cell-based, primary screen (AID 803);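 further: 0% = vehicle buffer wells and 100% = reference agonist at full effect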
# Conditions: GALR2-expressing cells, agonist activation read-out; at 5.6 µM; stronger effect = higher value
row,Compound,activation
1,CCC(=O)N1C2C3N(C(=O)CC)C1C1N(C(=O)CC)C(C(N1C(=O)CC)N3C(=O)CC)N2C(=O)CC,inactive: -0.22%
2,CCOC(=O)c1ccc(NP(C)(=O)Oc2ccc(F)cc2)cc1 (configuration not stated),inactive: -2.62%
3,CCOC(=O)NC(Sc1ccccc1)C(Cl)(Cl)Cl (configuration not stated),inactive: -2.41%
4,CCN(N=Nc1nonc1N)c1nonc1N,inactive: -0.33%
5,Cc1nc2ccc3ccccc3c2o1.O=[N+]([O-])c1cc([N+](=O)[O-])c(O)c([N+](=O)[O-])c1,inactive: -3.87%
6,Cc1cc(SC(NC(=O)c2ccc(F)cc2)C(Cl)(Cl)Cl)ncn1 (configuration not stated),inactive: 0.36%
7,CCOP(=O)(Nc1ccccc1)OCC,inactive: -1.35%
8,COc1ccccc1OP(C)(=O)Nc1ccc(C)c(C)c1 (configuration not stated),inactive: -0.46%
9,COc1ccc(OP(C)(=O)Nc2ccccc2Br)cc1 (configuration not stated),inactive: -0.49%
10,CP(=O)(Nc1ccccn1)Oc1ccccc1 (configuration not stated),inactive: -0.18%
11,COc1ccccc1OP(C)(=O)Nc1ccc(C)cc1C (configuration not stated),inactive: -1.92%
12,CCc1ccc(OP(C)(=O)O)cc1,inactive: -2.36%
13,Cc1c(NP(C)(=O)Oc2ccc(C(C)C)cc2)c(=O)n(-c2ccccc2)n1C (configuration not stated),inactive: -2.27%
14,CC(C)CC(=O)NC(Sc1ccc(Cl)cc1)C(Cl)(Cl)Cl (configuration not stated),inactive: -1.86%
15,O=C(NC(Sc1ccncn1)C(Cl)(Cl)Cl)c1ccccc1 (configuration not stated),inactive: 1.92%
16,Cc1c2non([O-])c-2c(C)[n+](=O)[n+]1[O-],inactive: -0.9%

row,Compound,activation
1,COc1ccc(OP(C)(=O)Nc2ccccn2)cc1 (configuration not stated),inactive: -0.41%
2,CN1CCCC(OC(=O)C(c2ccccc2)c2ccccc2)C1 (configuration not stated),inactive: 1.29%
3,CN(C)CCOC(=O)C(O)(c1ccccc1)C1CCCC1 (configuration not stated),inactive: -0.95%
4,CN(C)C(=O)OCCc1n(C)cc[n+]1C,inactive: -0.46%
5,CC1CCN(C(=O)Oc2c(Cl)cc(Cl)c3cccnc23)CC1,inactive: -0.6%
6,CC(C)(C)c1ccc(OP(C)(=O)O)cc1,inactive: -2.54%
7,CP(=O)(Nc1ccc(Cl)cc1)Oc1ccc(F)cc1 (configuration not stated),inactive: -1.4%
8,O=[N+]([O-])c1cccc2n[nH]nc12,inactive: -0.49%
9,CC(=O)N1C2C3N(C(C)=O)C1C1N(C(C)=O)C(C(N1C(C)=O)N3C(C)=O)N2C(C)=O,inactive: -1.46%
10,COc1ccccc1OP(C)(=O)Nc1c(C)n(C)n(-c2ccccc2)c1=O (configuration not stated),inactive: -1.59%
11,CP(=O)(Oc1ccccc1)N1CCOC1=O (configuration not stated),inactive: -2.29%
12,CCc1nc2c(n1)c1c(non1O)c1c2no[n+]1[O-],inactive: -4.21%
13,CCN(CC)CC(O)COC(=O)C(O)(c1ccccc1)C1CCCCC1 (configuration not stated),inactive: 0.85%
14,COc1ccc(OP(C)(=O)Nc2ccc(Br)cc2)cc1 (configuration not stated),inactive: 0.26%
15,CCOC(=O)c1ccc(NP(C)(=O)Oc2ccc(Cl)cc2)cc1 (configuration not stated),inactive: -2.43%
16,CP(=O)(OC12CC3CC(CC(C3)C1)C2)OC12CC3CC(CC(C3)C1)C2,inactive: -0.29%

# From PubChem BioAssay AID803 (The Scripps Research Institute Molecular Screening Center, 2007)
